Results: patent US9937115B2, “Oral care compositions with improved flavor” (priority 2010, dated 2018)

Amino acid sequences for entries named in this document (tags omitted). A change or cut given only in a name is not applied to a line headed by its entry.
UniProt O75762: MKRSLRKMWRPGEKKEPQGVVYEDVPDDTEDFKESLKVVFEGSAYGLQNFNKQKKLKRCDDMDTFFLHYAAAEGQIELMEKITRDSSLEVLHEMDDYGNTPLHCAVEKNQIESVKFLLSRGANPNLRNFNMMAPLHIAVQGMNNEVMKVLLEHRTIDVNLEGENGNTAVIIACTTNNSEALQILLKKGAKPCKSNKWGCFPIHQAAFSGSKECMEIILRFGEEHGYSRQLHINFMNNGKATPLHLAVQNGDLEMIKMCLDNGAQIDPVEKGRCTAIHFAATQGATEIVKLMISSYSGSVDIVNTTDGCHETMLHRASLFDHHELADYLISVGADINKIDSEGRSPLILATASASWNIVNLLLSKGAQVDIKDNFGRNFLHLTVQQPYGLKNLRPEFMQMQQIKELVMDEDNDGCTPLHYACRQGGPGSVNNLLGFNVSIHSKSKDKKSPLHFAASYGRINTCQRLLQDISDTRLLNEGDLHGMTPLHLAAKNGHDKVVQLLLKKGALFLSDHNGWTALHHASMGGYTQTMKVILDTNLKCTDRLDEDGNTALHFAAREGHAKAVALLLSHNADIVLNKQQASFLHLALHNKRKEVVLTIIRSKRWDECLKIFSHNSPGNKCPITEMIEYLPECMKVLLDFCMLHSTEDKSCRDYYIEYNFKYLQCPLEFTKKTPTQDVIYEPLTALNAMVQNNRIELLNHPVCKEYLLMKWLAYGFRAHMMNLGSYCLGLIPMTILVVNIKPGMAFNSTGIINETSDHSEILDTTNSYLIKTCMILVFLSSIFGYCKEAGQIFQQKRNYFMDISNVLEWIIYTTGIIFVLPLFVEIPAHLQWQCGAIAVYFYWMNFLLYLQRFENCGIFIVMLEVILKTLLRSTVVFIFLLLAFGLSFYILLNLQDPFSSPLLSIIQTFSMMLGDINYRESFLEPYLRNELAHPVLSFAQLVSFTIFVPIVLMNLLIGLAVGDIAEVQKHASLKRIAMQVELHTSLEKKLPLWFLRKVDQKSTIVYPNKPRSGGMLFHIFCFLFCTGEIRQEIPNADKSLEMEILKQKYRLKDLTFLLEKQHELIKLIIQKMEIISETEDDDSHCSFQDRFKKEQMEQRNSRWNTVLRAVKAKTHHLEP

Target: TRPA1 receptor (Homo sapiens, UniProt O75762)
Conditions: percentage of the control (allyl isothiocyanate) calcium count, material dissolved in DMSO at 100 micromolar, HEK cells with TRPA1
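For TRPA1 Pre-incubation in this document: values above 100 mean more active than the control.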

## Sodium Monofluorophosphate
Direct addition
  TRPA1 Direct addition: 0.19%
pre-incubation
  TRPA1 Pre-incubation: 92%
